Measured values as given in patent US20230087825A1, “SMARCA DEGRADERS AND USES THEREOF” (Kymera Therapeutics, Inc., priority 2019, published 2023).

By UniProt entry, the sequences of proteins in these tests, tags left out.
UniProt P51531, whole entry: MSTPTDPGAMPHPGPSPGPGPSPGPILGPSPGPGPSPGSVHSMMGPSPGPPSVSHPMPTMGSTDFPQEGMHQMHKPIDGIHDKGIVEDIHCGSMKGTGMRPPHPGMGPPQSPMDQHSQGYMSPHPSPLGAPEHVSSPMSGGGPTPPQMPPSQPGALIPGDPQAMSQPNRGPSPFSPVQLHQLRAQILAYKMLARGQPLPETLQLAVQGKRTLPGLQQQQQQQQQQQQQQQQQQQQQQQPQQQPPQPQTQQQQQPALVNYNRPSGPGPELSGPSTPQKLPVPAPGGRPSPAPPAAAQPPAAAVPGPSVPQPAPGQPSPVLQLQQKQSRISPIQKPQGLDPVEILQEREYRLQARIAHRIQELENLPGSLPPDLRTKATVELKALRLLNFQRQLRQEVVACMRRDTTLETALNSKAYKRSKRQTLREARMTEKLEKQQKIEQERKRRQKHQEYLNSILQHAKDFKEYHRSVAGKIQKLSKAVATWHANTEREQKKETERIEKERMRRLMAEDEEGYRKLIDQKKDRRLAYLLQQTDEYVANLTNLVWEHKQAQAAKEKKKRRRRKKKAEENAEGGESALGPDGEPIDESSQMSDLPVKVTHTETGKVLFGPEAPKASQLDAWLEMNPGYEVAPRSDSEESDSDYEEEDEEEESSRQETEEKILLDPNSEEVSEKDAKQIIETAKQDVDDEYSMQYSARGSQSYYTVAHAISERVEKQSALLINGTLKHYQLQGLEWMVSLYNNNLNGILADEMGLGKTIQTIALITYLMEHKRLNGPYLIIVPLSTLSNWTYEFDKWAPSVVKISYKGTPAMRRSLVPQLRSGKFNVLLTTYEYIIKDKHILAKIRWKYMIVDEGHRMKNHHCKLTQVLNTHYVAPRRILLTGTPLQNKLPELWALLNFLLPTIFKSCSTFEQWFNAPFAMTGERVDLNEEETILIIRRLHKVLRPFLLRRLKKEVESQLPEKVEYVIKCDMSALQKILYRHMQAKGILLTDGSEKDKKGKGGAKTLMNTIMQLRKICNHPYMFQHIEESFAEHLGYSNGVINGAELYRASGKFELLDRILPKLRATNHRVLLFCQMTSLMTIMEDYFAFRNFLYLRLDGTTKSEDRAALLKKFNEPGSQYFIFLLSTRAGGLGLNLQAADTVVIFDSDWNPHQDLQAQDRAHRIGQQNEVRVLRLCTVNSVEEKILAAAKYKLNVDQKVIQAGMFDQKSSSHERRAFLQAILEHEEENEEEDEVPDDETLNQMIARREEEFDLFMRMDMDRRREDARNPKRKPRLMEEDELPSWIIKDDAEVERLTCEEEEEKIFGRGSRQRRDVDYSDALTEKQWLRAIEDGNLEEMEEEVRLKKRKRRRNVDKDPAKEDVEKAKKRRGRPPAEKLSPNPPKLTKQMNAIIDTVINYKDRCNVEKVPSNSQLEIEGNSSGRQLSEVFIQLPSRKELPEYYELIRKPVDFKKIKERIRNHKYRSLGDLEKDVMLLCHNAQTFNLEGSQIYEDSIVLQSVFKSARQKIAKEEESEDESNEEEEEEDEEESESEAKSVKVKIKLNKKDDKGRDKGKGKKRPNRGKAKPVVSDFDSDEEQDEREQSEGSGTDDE

Molecular target: SMARCA2 (Homo sapiens, UniProt P51531)
Assay: MSD SMARCA2 degradation in NCI-H1299 cell line
Details: NCI-H1299 cells, percentage of SMARCA2 degradation after 24 hours

Row | Structure (SMILES) | SMARCA2 MSD H1299 degradation 24 h: Average Dmax % (tested form: HCl) | SMARCA2 MSD H1299 degradation 24 h: Average Dmax %
1 | Nc1nnc(-c2ccccc2O)cc1N1CC2CCC(C1)N2c1ncc(C2CCN(CCCc3ccc4c(c3)c3cccnc3n4C3CCC(=O)NC3=O)CC2)cn1 (centres unmarked) | A (A (>90% degradation)) | 
2 | Nc1nnc(-c2ccccc2O)cc1-c1cnn(C2CCN(CCCCc3ccc4c(c3)c3cccnc3n4C3CCC(=O)NC3=O)CC2)c1 (centres unmarked) |  | A (A (>90% degradation))
